Our source for the IC50, Ki and Kd values is patent US8685962B2 (priority 2007, dated 2014).

The chains behind the UniProt entries cited, without tags or fusion partners.
UniProt P30536, whole entry: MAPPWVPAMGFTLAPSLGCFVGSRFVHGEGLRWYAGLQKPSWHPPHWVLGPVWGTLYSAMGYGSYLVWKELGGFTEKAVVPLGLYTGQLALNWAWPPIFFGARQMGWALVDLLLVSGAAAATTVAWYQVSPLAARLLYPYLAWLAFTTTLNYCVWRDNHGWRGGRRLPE

The target in assay [1] is T1, TSPO receptors in SCC-25 cell line (Homo sapiens, UniProt P30536).
T1 construct: endogenous in cells; host or cells: SCC-25
Briefly: Displacement of [3H]PK11195 from TSPO receptors in SCC-25 cells. Format: binding. Here is the method: (§1) [^3H]PK 11195, an isoquinoline carboxamide derivative, was used for binding studies. PK 11195 is a specific TSPO receptor ligand. Cells were scraped from the culture dishes, washed with phosphate-buffered saline (PBS), and centrifuged at 1200 g for 10 minutes. Then the cell pellets were re-suspended in 1 mL of 50 mM phosphate buffer, pH 7.4, and centrifuged at 1200 g for 10 minutes. Binding assays contained 400 μL of cell membrane (0.4 mg of protein/mL) in the absence (total binding) or presence (non-specific binding) of 1 μM unlabeled PK 11195, up to a final volume of 500 μL. After incubation for 80 minutes at room temperature, samples were filtered under vacuum over Whatman GF/B filters and washed three times with phosphate buffer. Filters were placed in vials containing 4 mL of Opti-Fluor (Packard, Groningen, The Netherlands) and counted for radioactivity in a scintillation counter after 12 hours. The maximal number of binding sites (Bmax) and equilibrium dissociation constants were calculated from the saturation curve of [^3H] PK 11195 binding, using Scatchard analysis.
(§2) A series of competition studies using 5 compounds were conducted in order to determine the IC50 of various compounds in displacing of [^3H]PK11195 from TSPO receptors in SCC-25 and SCC-15 cell lines. […]
(Loss of bound radioactivity is the signal in a displacement assay; it reports binding, not function.)

Assay [2] addresses T2, TSPO receptors in SCC-15 cell line (Homo sapiens, UniProt P30536).
T2 construct: endogenous in cells; host or cells: SCC-15
Briefly: Displacement of [3H]PK11195 from TSPO receptors in SCC-15 cells. Format: binding. As to the method: as §1, §2

For a further assay, the target named is T3, human salivary TSPO (Homo sapiens, UniProt P30536).
T3 construct: from tissue; host or cells: cells pelleted from human saliva samples (volunteers; smokers and non-smokers)
In words: Competition of TSPO ligands with [3H]PK11195 binding in human saliva. Here is the method:
After 80 minutes of incubation at 4° C., the samples were filtered through Whatman CF/C filters using a vacuum system, washed three times with 4 ml of 5 mM ice-cold phosphate buffer and placed in vials containing 4 ml of Opti-Fluor. Radioactivity was counted after 12 hours with a liquid scintillation analyzer. Specific binding was obtained by subtracting non specific binding from total binding.

The next assay has as its target TSPO receptor (Homo sapiens, UniProt P30536). The settings on record: background statement; cited from earlier work.
The target of assay [3] is T4, TSPO receptors in human tongue cancer cell line SCC-25 (Homo sapiens, UniProt P30536).
T4 construct: Cells were scraped from the culture dishes, washed with phosphate-buffered saline (PBS), and centrifuged; endogenous in cells; host or cells: SCC-25
In words: [3H]PK11195 saturation binding (Scatchard) in SCC-25 cells. The settings on record: read-out: Kd (equilibrium dissociation constant). Here is the method: as §1
Scatchard analysis of [^3H]PK11195 specific binding to human tongue cancer cell lines SCC-25 and SCC-15 was performed (see, FIGS. 8A and 8C for saturation curves, and FIGS. 8B and 8D for Scatchard plots for SCC-25 and SCC-15, respectively).

The next assay deals with T5, TSPO receptor in saliva (Homo sapiens, UniProt P30536).
T5 construct: from tissue; host or cells: cells pelleted from human saliva samples (volunteers; smokers and non-smokers)
Briefly: [3H]PK11195 saturation binding with Scatchard analysis in human saliva. The settings on record: n=10, read-out: Kd (equilibrium dissociation constant). Here is the method: For Binding analysis, saliva samples were thawed and immediately centrifuged (800 g, 10 minutes, 4° C.). The pellet, containing saliva cells, was suspended in ice-cold phosphate buffer saline (PBS), and then homogenized using a Polytron (setting 6) for 10 seconds. Total protein amount was determined.
Binding of [^3H]PK11195 to membranes of the saliva cell was conducted, as previously described (Awad and Gavish, 1987; Kelly-Hershkovitz et al., 1988; Carmel et al., 1999). The reaction mixture contained 400 μl of the homogenized samples and 25 μl of [^3H]PK 1195 (final concentration of 0.19-6 nM), in the absence (total binding) or in the presence (non-specific binding) of 10 μM unlabeled PK 11195. […] Radioactivity was counted after 12 hours with a liquid scintillation analyzer. […]
The maximal number of binding sites (Bmax) and equilibrium dissociation constants were calculated from the saturation curve of [^3H]PK11195 binding, using Scatchard analysis.
For determination of the salivary TSPO binding characteristics, binding analysis with the TSPO receptor [^3H]PK 11195 ligand was performed. […] The mean maximal binding capacity (Bmax) and equilibrium dissociation constant (Kd) values were calculated from the saturation curves with the application of Scatchard analysis to six independent experiments. […]

For assay [4], the target named is T6, TSPO receptors in human tongue cancer cell line SCC-15 (Homo sapiens, UniProt P30536).
T6 construct: endogenous in cells; host or cells: SCC-15
In words: [3H]PK11195 saturation binding (Scatchard) in SCC-15 cells. As to the method: as §1
Non-specific binding of [^3H]PK11195 to SCC-25 was a third of the total binding. […] Non-specific binding of [^3H]PK11195 to SCC-15 cells was a fourth (25±3.2%) of the total binding.

Like-named read-outs stand apart in the source and are kept apart here.

For `O=C1CN=C(c2ccccc2Cl)c2cc([N+](=O)[O-])ccc2N1` [Clonazepam], the IC50 in assay [1] and in assay [2] was greater than 100000 nM throughout. This compound displayed a Ki at human salivary TSPO greater than 10000 nM.
With `CCC(C)N(C)C(=O)c1cc2ccccc2c(-c2ccccc2Cl)n1` (stereo not shown) [PK 11195, 1-(2-chlorophenyl)-N-methyl-N-(1-methylpropyl)-3-isoquinoline carboxamide], on TSPO receptor, the Kd was less than 20 nM. Moreover, the IC50 was found to be 9 ± 3 nM in assay [1] (50% inhibition of [3H]PK11195 binding, SCC-25, read-out: IC50) and 6 ± 5 nM in assay [2] (50% inhibition of [3H]PK11195 binding, SCC-15, read-out: IC50). Besides, the Ki on human salivary TSPO (inhibition of [3H]PK11195 binding, human saliva, four independent experiments, read-out: Ki) was 6 nM.
In the case of `CCC(C)N(C)C(=O)c1cc2ccccc2c(-c2ccccc2Cl)n1` (stereo not shown) [[^3H]PK11195], the equilibrium dissociation constant (Kd) in assay [3] was determined as 5.75 ± 2 nM; on TSPO receptor in saliva it was 6.2 ± 1.4 nM; in assay [4], 5.95 ± 4.6 nM.

As a reminder, the IC50 is the midpoint of a concentration-inhibition curve. By Ki is commonly meant a dissociation constant, usually derived from enzyme kinetics or from competition with a known ligand. The Kd is the constant that tells how readily two partners part at equilibrium.
